Measurements as given in patent US11104664B2, “4,5,6-trisubstituted indazole derivatives, and preparation method and pharmaceutical use thereof” (SHANGHAI HAIYAN PHARMACEUTICAL TECHNOLOGY CO., LTD., priority 2016, dated 2021).

Sequences of proteins named here, by UniProt entry; tags and fusion partners are left off.
UniProt Q15910, whole entry Y641F: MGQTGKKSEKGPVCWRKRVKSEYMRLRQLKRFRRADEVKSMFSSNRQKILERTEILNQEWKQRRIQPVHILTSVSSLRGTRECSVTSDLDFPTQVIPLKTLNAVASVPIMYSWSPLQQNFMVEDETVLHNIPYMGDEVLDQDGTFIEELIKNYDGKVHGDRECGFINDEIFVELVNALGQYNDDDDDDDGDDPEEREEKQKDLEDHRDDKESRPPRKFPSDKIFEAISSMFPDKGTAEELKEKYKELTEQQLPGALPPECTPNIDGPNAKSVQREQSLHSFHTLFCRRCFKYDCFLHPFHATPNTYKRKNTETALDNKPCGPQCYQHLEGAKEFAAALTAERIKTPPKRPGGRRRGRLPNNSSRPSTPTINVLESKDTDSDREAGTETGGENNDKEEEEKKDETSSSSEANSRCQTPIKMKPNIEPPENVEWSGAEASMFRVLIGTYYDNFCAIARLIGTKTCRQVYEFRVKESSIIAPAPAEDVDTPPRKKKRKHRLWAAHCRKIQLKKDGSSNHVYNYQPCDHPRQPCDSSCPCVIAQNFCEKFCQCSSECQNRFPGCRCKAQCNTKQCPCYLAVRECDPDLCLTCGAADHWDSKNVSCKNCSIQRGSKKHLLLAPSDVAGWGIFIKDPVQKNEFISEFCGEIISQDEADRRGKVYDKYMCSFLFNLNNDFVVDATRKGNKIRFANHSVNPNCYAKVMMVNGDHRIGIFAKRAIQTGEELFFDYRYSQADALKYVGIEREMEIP
UniProt O75530, whole entry partner: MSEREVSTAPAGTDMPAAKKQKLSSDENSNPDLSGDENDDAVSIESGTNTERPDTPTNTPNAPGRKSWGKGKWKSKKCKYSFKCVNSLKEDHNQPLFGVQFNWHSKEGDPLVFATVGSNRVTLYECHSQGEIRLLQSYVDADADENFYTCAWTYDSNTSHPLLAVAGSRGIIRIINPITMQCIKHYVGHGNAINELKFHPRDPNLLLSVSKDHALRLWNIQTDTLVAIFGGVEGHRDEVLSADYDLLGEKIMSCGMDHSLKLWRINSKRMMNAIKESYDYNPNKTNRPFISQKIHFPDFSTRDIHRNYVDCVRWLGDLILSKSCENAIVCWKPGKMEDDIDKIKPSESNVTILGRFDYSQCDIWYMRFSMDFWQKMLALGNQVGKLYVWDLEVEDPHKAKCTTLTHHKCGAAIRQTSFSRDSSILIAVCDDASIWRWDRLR
UniProt Q09028, whole entry partner: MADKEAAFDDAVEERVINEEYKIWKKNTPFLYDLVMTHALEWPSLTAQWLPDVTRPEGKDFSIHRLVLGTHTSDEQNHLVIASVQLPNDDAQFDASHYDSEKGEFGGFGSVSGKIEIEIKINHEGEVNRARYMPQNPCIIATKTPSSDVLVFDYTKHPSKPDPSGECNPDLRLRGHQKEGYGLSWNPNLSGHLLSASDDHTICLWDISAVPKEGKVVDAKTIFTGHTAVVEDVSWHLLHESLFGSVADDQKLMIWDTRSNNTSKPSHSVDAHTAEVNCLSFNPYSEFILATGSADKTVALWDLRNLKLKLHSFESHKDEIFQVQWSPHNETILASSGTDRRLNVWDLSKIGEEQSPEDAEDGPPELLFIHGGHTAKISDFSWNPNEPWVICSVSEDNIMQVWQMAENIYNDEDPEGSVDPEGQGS
UniProt Q15022, whole entry partner: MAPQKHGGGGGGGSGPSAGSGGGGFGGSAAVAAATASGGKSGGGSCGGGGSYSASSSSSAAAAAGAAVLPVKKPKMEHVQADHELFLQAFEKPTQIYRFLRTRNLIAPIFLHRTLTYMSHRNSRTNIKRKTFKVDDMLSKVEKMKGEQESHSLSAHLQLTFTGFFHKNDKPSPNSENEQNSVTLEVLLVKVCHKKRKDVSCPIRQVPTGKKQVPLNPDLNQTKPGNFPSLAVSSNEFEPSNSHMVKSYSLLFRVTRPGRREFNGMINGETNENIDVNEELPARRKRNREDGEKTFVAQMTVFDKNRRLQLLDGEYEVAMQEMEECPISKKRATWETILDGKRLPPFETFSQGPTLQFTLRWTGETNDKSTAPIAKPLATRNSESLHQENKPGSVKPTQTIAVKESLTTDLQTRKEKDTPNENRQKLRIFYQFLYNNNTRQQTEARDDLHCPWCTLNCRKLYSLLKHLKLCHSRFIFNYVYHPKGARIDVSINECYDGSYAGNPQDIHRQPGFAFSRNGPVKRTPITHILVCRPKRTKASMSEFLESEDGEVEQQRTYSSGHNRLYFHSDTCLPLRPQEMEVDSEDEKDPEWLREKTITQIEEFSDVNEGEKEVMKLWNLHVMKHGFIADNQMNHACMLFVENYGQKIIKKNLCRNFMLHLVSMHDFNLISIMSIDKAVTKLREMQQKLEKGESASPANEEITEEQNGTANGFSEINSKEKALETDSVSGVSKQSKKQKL
UniProt Q6ZN18, whole entry partner: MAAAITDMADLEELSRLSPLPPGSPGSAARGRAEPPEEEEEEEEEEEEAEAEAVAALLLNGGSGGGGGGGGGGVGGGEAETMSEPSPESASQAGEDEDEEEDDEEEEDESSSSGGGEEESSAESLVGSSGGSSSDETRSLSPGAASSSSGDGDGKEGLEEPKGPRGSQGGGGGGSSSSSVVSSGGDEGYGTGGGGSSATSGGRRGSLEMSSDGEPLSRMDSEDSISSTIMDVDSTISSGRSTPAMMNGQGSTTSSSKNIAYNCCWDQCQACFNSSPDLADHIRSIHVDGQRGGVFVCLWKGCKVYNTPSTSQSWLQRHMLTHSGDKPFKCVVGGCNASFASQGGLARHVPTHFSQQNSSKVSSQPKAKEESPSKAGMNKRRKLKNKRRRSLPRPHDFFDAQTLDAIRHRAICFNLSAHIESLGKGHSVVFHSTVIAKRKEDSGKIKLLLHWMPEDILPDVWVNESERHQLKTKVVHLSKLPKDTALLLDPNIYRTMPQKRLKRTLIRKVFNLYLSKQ

Experiments:
[1] = tested on: Pfeiffer cells; test: Cell proliferation assay (Cell counting kit-8, 6 days); conditions: read-out: Pfeiffer IC50; Pfeiffer (CRL-2632), 6 days culture
Experimental: The used cell lines Pfeiffer (CRL-2632), suDHL-6 (CRL-2959) and suDHL-10 (CRL-2963) were obtained from American Type Culture Collection (ATCC). All cell lines were cultured in RPMI-1640 medium (Gibco) containing 10% fetal bovine serum (Gibco). The cultured cells were harvested by centrifugation and the cell density was determined using a CounterStar cell counter. Appropriate number of cells were plated in a 96-well culture plate and incubated overnight. Compounds to be tested were diluted by 8 gradient points in a ratio of 1:3 and added into corresponding wells. After continuing to culture for 6 days, the number of viable cells was measured with Cell counting kit-8, and the absorbance value was read on Tecan infinite pro. The IC50 was calculated by fitting in a four-parameter model in the XLfit software.

[2] = target: Recombinant PRC2 (EZH2-Y641F) (Homo sapiens (Human), UniProt Q15910, Y641F); test: In vitro methyltransferase activity assay (LANCE Ultra); conditions: read-out: EZH2 Y641F IC50; 2.5 μM SAM/250 nM H3(1-50)K27me1, 3 hours, room temperature
Experimental: Recombinant PRC2 (EZH2-Y641F) was purchased from Active motif, S-adenosyl-methionine (SAM) and Poly-L-lysine (PLL) were purchased from Sigma-Aldrich, and H3(1-50)K27me1 peptide was purchased from Cisbio. LANCEUltrasystem (Perkinelmer) was used for detection system. In the enzyme activity test, compounds to be tested were diluted by 8 gradient points in a ratio of 1:3, and added into each well in a reaction plate, and 100 ng recombinase was added, followed by a buffer [20 mM Tris pH8.5, 2 mM MgCl2, 0.01% Tween-20, 1 mM TCEP] containing 2.5 μM SAM/250 nM H3 (1-50)K27me1 premixtures. Enzymatic reaction thus began at room temperature. After reacted for 3 hours, a detection solution premixed with PLL, detection antibody and Ulight was added, and reacted for 1 hour at room temperature. The fluorescence value was then read on a Tecan infinite pro. IC50 was calculated by fitting in a four-factor model in the XLfit software.

| Compound | IC50 [1] | IC50 [2] |
| --- | --- | --- |
| CCN(c1cc(C(=O)NCc2c(C)cc(C)[nH]c2=O)c(C)c2c1cnn2C)C1CCC(N2CC(OC)C2)CC1 (stereo not drawn) | > 3 µM | > 10 µM |
| CCN(c1cc(C(=O)NCc2c(C)cc(C)[nH]c2=O)c(C)c2c1cnn2C)C1CCC(N(C)C)CC1 (stereo not drawn) | > 3 µM | – |
